Values quoted from earlier work in paper PMC5502072, “Safety, tolerability and pharmacokinetics of the fibroblast growth factor receptor inhibitor AZD4547 in Japanese patients with advanced solid tumours: a Phase I study” (Investigational New Drugs, 2017).

Tested on: FGFR2-amplified GC xenografts
Conditions: several AZD4547-treated animals; cited from earlier work

For AZD4547, the Tumour regression is given as “complete and prolonged tumour regression”.
